The assay concerns the target T1, recombinant IL-1R1 (R&D Systems) (human, UniProt P14778 18-332, limits assumed).
T1 construct: also called Interleukin 1 Receptor type 1; immobilized IL-1R1
T1 sequence (looked up): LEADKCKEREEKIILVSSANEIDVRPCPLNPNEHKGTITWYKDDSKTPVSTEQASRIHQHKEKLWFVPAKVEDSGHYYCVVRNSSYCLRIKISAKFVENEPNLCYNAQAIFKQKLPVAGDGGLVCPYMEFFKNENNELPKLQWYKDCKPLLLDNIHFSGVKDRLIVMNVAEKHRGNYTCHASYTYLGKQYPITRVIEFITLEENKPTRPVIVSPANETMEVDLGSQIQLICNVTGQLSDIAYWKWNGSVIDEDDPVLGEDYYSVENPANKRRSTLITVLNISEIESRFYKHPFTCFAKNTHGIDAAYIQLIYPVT
Briefly: SPR sensorgrams (FIGS. 3A and 3B), IL-1R1 immobilized. The protocol:
IL-1ra was injected over immobilized IL-1R1 and bound to the immobilized receptor.
To determine the epitopic specificity of the anti-IL-1R1 dAbs, competitive binding assays were performed. […] When an injection of IL-1ra was followed by an injection of IL-1α, two molecules that are known to compete for binding to the receptor, the IL-1α was also unable to bind the receptor (FIG. 3B).

The record followed here is patent publication US20090155283A1 (published 2009).

B1: Interleukin 1 receptor antagonist (IL-1ra) (ligand, UniProt P18510 26-177, looked up)
chain: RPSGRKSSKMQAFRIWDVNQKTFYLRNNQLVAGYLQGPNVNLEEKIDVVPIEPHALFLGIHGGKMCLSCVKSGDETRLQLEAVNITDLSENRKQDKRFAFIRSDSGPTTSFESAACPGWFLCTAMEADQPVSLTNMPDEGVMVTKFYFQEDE
On to B1, for which the binding result was “binds”.
